Experimental data published in ChEMBL document CHEMBL3272301, “Improved delivery through biological membranes. 2. Distribution, excretion, and metabolism of N-methyl-1,6-dihydropyridine-2-carbaldoxime hydrochloride, a pro-drug of N-methylpyridinium-2-carbaldoxime chloride” (1976).

Assays:
Plasma [1] = assay: Plasma concentration in beagle dog at 5 mg/kg, iv measured after 5 mins; details: in vivo, strain beagle
Plasma [2] = assay: Plasma concentration in beagle dog at 5 mg/kg, iv measured after 15 mins; details: in vivo, 0.25 h, strain beagle
Plasma [3] = assay: Plasma concentration in beagle dog at 5 mg/kg, iv measured after 30 mins; details: in vivo, 0.5 h, strain beagle
Plasma [4] = assay: Plasma concentration in beagle dog at 5 mg/kg, iv measured after 45 mins; details: in vivo, 0.75 h, strain beagle
Plasma [5] = assay: Plasma concentration in beagle dog at 5 mg/kg, iv measured after 60 mins; details: in vivo, 1 h, strain beagle
[6] = Drug excretion in beagle dog urine treated with [14C]-labelled N-Methyl-1,6-dihydropyridine-2-carbaldoxime hydrochloride at 44.6 mg/kg, po by liquid scintillation counting; details: in vivo, strain beagle
[7] = Drug excretion in beagle dog feces treated with [14C]-labelled N-Methyl-1,6-dihydropyridine-2-carbaldoxime hydrochloride at 44.6 mg/kg, po by liquid scintillation counting; details: in vivo, strain beagle
[8] = Drug excretion in beagle dog urine assessed as radioactivity treated with [14C]-labelled N-Methyl-1,6-dihydropyridine-2-carbaldoxime hydrochloride at 44.6 mg/kg, po by liquid scintillation counting; details: in vivo, strain beagle
[9] = Drug excretion in beagle dog feces assessed as radioactivity treated with [14C]-labelled N-Methyl-1,6-dihydropyridine-2-carbaldoxime hydrochloride at 44.6 mg/kg, po by liquid scintillation counting; details: in vivo, strain beagle

C[n+]1ccccc1/C=N/O.[Cl-]
Cp (Plasma [1]): 11400 ng/mL | Cp (Plasma [2]): 5680 ng/mL | Cp (Plasma [3]): 5550 ng/mL | Cp (Plasma [4]): 2450 ng/mL | Cp (Plasma [5]): 1250 ng/mL

CN1CC=CC=C1/C=N/O.Cl
Drug excretion [6]: 67.6 %ID | Drug excretion [7]: 19.2 %ID | Drug excretion [8]: 43.7 %ID | Drug excretion [9]: 50.9 %ID
